Reference: patent US6713294B1, “DNA glycosylases and their use” (priority 1996, dated 2004)

Test system: ^3H-uracil released in uracil-DNA glycosylase assays
Test: Uracil-DNA glycosylase activity after coupled transcription/translation in rabbit reticulocyte lysates
Format: biochemical
Method: In vitro transcription/translation was performed with the TNT® transcription/translation system with […] as recommended by the manufacturer, using 200 ng of the expression constructs per 10 μl reaction volume. The mouse UNG1-pBluescript® construct was transcribed from the T3 promoter in the pBluescript® vector. The insert of mouse UNG2-pBluescript® was amplified by the polymerase chain reaction using Dynazyme® PCR kit, ligated into the pGEM-T vector and transcribed from the T7 promoter. The human UNG2-pBluescript was transcribed from the T3 promoter after SacII/NheI excision of a 79 bp fragment from the polylinker and the 5′-end of cDNA for UNG2. Human UNG1 CDNA was transcribed from the T7 promoter as previously described (Slupphaug et al., 1995, Biochemistry, 34, p128-138). The samples were run on a 12% denaturing sodium dodecyl sulfate polyacrylamide gel (SDS-PAGE). […] Uracil-DNA glycosylase activity was measured in parallel samples of the in vitro transcription/translation assay mixture containing unlabelled amino acids (Slupphaug et al., 1995, supra). […]
For calculations of the relative specific activities, the radioactivity released in uracil-DNA glycosylase assays was compared to band intensities on an SDS-PAGE gel from transcription/translation reactions using [^35S] methionine (Table 6).

Substance: human UNG2: new human uracil-DNA glycosylase from alternative splicing, 313 amino acids, nuclear (SEQ ID No 2)
- dpm (^3H-uracil released) (after subtraction of background of 123 dpm): 6360 dpm
- Activity (dpm/area), relative specific activity (translation in rabbit reticulocyte lysates): 23731 dpm/area
